The structures appear in SMILES notation.

This assay deals with glycine site of the NMDA receptor (Rattus norvegicus, UniProt P35439). The experiment in a line: Displacement of [3H]-L-689,560 from rat brain membranes (NMDA glycine site binding). The conditions noted are these: read-out: IC50 (nM), binding affinity for the glycine site of the NMDA receptor, [3H]-L-689,560 method, tris-acetate buffer pH 7.4, 90 minutes, tested form: 0.25 1,4-dioxane solvate. A general note: In a radioligand displacement assay an active substance lowers the binding of a labelled ligand.

`Cn1nnnc1-c1c(Cl)c(Cl)cc2[nH]c(=O)c(=O)[nH]c12`: the half-inhibitory concentration (IC50) (as a rule, the concentration needed to halve the response being measured) came out at 3 nM.

(Values after US6376490B1, “Quinoxalinediones” (Pfizer Inc, priority 1997, dated 2002).)
